Laboratory results taken from ChEMBL document CHEMBL1137660, “Molecular and biochemical characterization of the chromosome-encoded class A beta-lactamase BCL-1 from Bacillus clausii” (Antimicrob Agents Chemother, 2007).

Key:
[1] = substrate: C[C@@H](O)[C@H]1C(=O)N2C(C(=O)O)=C(SCCNC=N)C[C@H]12; details: Shouchella clausii; NR
[2] = substrate: C[C@@H](O)[C@H]1C(=O)N2C(C(=O)O)=C(SCCNC=N)C[C@H]12; details: Shouchella clausii; NR; remark: listed apart in the source

B1: Beta-lactamase (Bacillus clausii), A8RR46 (protein)
chain: MKRSFFMLKTKITSSILVGACLLIGCSNGNEQPVSNEPEPEESVETGEAVFKALEEEYAARLGVFALDTGTGQTVSYRSDERFTYASAHKPLAVAVLLQQKSIEELEQLITYSADDLVNYNPITENHVETGMTLRELSDASIRYSDNTAANFIFDEIGGPEGFKEGLRAIGDTVTEPERIEPELNHVEPGEIQDTSTPEALAKSLQEFALGEALPADKQELLIDWLIGNTTGDALIRAGVPEGWEVGDKTGAGSYGTRNDIAILWPPEKEPIILAVLSSKDEKDAEYDDELIAKATEEVINLLAQTE
Km [1]: 35 µM | kcat [1]: 0.06 s⁻¹ | kcat/Km [2]: 100000 M⁻¹ s⁻¹
